Results from patent US4765972A (priority 1986, dated 1988).

Experiments:
Type in all cases: binding
21.5 kDa polypeptide = experiment: Photolabelling of calf brain homogenate with ^3 H-NABV, 21.5 kDa polypeptide
Description: (§1) Tissue homogenate high speed supernatant and pellet fractions were obtained by homogenizing 1 gram of calf brain in 10 ml volumes of 0.05 M potassium phosphate buffer, pH 7.4, for one minute with a Model PCU Polytron homogenizer with a PT-10-ST probe operated at 50% maximum power (Brinkmann Instruments, Westbury, NY). The brain tissue homogenate was collected after filtering through one layer of cheesecloth. Brain tissue high speed supernatant fractions were prepared by centrifuging the homogenates at 100,000×g for 60 minutes at 4° C. The resulting pellet was washed twice with five times its original volume of buffer, and recentrifuged as described. Protein concentrations and supernatant fractions were stored in small aliquots in liquid nitrogen and thawed only once.
(§2) The standard photolabelling mixture used contained 50 nM ^3 H-NABV (50.6 Ci/mmol), 4% dimethylsulfoxide, […] potassium phosphate buffer, pH 7.0, and 2 mg/ml of tissue homogenate or high speed pellet or supernatant fractions in a final volume of 0.05 ml in polyvinylchloride V-microtiter wells (Dynatech Labs, Inc., Alexandria, VA) in a 25° C. water bath. Photolabelling mixtures were incubated for 15 minutes at 25° C. before photolysis. Photoactivation was performed for 10-20 minutes with a UV light equipped with two 15 W self-filtering 302 nm lamps (Model xx-15, Ultra-Violet Products, Inc., San Gabriel, CA), placed 3.4 cm above the photolabelling mixture. […]
(§3) Electrophoresis was performed as described by Laemmli in Nature (Lond.) 227, 680-685 (1970) with a linear polyacrylamide gradient from 9.7% acrylamide, 0.26% bis-acrylamide and 10% glycerol, to 16.6% acrylamide, 0.44% bis-acrylamide, and 17% glycerol using a Bio-Rad slab gel apparatus (Model 220, Richmond, CA) at 8 mA/gel for sixteen hours. […] Each slice was incubated with 0.3 ml 30% H2 O2 in a closed scintillation vial at 100° C. for one hour to solubilize the gel slice, with radioactivity subsequently quantitated. […] The radioactivity of photolabelled components was quantitated in triplicate by adding the dpm in each 1 mm gel slice through the radioactive peak. […]

[1] = system: 14, 26, and 44 kDa polypeptides; experiment: Photolabelling of calf brain homogenate with ^3 H-NABV, weakly labelled polypeptides; conditions: 20 micromoles of vinblastine
Description: as §1, with “Protein concentrations and supernatant fractions were stored in small aliquots in liquid nitrogen and thawed only once.” left out
as §3

[2] = system: 54.3 kDa polypeptide (tubulin subunit); experiment: Photolabelling of calf brain homogenate with ^3 H-NABV, 54.3 kDa polypeptide
Description: as §1, §2, §3

[3] = 0.44 micromoles ^3 H-NABV, increasing concentrations of vinblastine
[4] = slope of replot of competition data
[5] = 0.44 micromoles ^3 H-NABV, competitor 1-22 micromoles

Q: `CC[C@]1(O)C[C@@H]2CN(CCc3c([nH]c4ccccc34)[C@@](C(=O)OC)(c3cc4c(cc3OC)N(C)[C@H]3[C@@](O)(C(=O)OC)[C@H](OC(C)=O)[C@]5(CC)C=CCN6CC[C@]43[C@@H]65)C2)C1` [vinblastine] was tested. Which “limiting minimum of labelling, % of the total photolabelling in the absence of competitor” value (21.5 kDa polypeptide; [3]) did it give?
A: about 50%

Q: And the “relative association constant Kr =Ka vinblastine/Ka NABV” value (21.5 kDa polypeptide; [4])?
A: 1.4

Q: And the decrease of photolabelling [1]?
A: approximately 40%

Q: What about the “limiting minimum of labelling, % of the total photolabelling in the absence of competitor” value [2, 3] of the same molecule?
A: about 50%

Q: What about the “relative association constant Kr =Ka vinblastine/Ka NABV” value [2, 4] of the same molecule?
A: 0.86

Q: What does the source list for `CC[C@]1(O)C[C@H]2CN(CCc3c([nH]c4ccccc34)[C@@](C(=O)OC)(c3cc4c(cc3OC)N(C=O)[C@H]3[C@@](O)(C(=O)OC)[C@H](OC(C)=O)[C@]5(CC)C=CCN6CC[C@]43[C@@H]65)C2)C1` [vincristine]?
A: effect of increasing concentrations of competitor on photolabelling (21.5 kDa polypeptide; [5]): significantly decreased; effect of increasing concentrations of competitor on photolabelling [2, 5]: significantly decreased
